Molecules are shown by their SMILES. Where two headings read alike, the source gives them in different places.

Protein sequences, listed by entry. Tags and fused reporters are not part of them. Residues count along the entry.
UniProt P25116, 22-425: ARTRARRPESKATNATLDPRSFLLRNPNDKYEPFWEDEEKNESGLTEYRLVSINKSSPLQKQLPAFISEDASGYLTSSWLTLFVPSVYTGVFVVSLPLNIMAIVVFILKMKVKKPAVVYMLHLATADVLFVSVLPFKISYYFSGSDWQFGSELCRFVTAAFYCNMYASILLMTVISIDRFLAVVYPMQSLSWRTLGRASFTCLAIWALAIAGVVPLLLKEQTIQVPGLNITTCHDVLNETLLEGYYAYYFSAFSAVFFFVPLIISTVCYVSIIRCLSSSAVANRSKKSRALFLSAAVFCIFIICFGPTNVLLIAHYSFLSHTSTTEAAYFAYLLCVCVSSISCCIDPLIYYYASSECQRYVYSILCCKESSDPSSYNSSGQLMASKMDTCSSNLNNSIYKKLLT

Consider one compound from paper PMC11384906, “PAR1-mediated Non-periodical Synchronized Calcium Oscillations in Human Mesangial Cells” (Function, 2024).

For the experiment, the target named is PAR1 (Homo sapiens, UniProt P25116). Briefly: cell-based.

Usually EC50 stands for the concentration that produces a half-maximal response. The low end stands for higher potency in that assay, the high end for lower potency in that assay. `CC(C)C[C@H](NC(=O)[C@H](CC(C)C)NC(=O)[C@H](Cc1ccccc1)NC(=O)[C@@H](N)[C@@H](C)O)C(=O)N[C@@H](CCCNC(=N)N)C(N)=O` [TFLLR-NH2] yielded a half-maximal effective concentration (EC50) of 3 ± 0.8 nM. Also, the EC50 (EC50, Ca2+ response to PAR1 agonist, female-derived HRMCs, Fluo-8H, AM, room temperature) was 6.3 ± 0.2 nM.
